{
  "source": "patent US9920058B2",
  "about": "“Molecules with potent DHFR binding affinity and antibacterial activity” (Georgia Tech Research Corporation, priority 2013, dated 2018)",
  "test_system": "vancomycin-resistant E. faecium (ATCC700221) (VREF)",
  "experiment": "Antimicrobial growth inhibition (MIC), VREF",
  "conditions": "Enterococcus faecium, ATCC700221, read-out: VREF (MIC)",
  "data": [
    {"compound": "Nc1nc2[nH]cc(CCc3ccc(C(=O)N[C@@H](CCC(=O)O)C(=O)O)cc3)c2c(=O)[nH]1", "note": "[NSC698037, pemetrexed]", "values": [
      {"measurement": "MIC", "result": 500, "unit": "µg/mL"}
    ]}
  ]
}
